Laboratory results published in patent publication US6413978B1, “Basic derivatives of benz[e] isoindol-1-ones and pyrrolo[3,4-c] quinolin-1-ones with 5-HT3-antagonistic activity, their preparation and their therapeutic use” (Rotta Research Laboratorium S.p.A., priority 1998, dated 2002).

Amino acid sequences for entries named in this document (tags omitted). Residues count along the entry.
UniProt P35563, 24-483: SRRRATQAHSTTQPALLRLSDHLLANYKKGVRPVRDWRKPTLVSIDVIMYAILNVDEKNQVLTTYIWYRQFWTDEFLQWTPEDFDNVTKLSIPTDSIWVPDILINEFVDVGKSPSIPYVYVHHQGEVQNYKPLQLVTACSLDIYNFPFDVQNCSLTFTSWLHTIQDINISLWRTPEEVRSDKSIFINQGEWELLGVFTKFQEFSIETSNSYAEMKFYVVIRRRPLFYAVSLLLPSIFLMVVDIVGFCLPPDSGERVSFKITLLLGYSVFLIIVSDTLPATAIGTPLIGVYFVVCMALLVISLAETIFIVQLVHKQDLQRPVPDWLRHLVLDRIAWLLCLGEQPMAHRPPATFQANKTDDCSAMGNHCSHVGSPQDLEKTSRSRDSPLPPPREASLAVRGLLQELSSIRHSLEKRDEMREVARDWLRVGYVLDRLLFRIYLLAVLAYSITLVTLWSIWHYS
UniProt P19327, whole entry: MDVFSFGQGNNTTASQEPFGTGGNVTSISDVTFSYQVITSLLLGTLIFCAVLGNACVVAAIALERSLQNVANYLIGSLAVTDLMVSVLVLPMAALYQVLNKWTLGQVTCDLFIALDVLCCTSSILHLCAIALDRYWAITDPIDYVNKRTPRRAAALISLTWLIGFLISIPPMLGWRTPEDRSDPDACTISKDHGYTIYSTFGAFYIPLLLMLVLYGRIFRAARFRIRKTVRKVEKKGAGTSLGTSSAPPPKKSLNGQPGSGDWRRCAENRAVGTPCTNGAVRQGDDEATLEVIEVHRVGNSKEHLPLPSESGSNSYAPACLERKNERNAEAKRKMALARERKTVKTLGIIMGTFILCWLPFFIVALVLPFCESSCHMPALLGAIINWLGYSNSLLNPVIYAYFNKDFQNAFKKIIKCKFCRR

Experiments:
5-HT3 receptors = target: T1, 5-HT3 receptors (Rattus norvegicus, UniProt P35563); experiment: Affinity for the 5-HT3 receptors, [3H]-BRL43694 (Granisetron) binding
T1 construct: from tissue; host or cells: rat cortex and hippocampus
Protocol: a) Affinity for the 5-HT3 Receptors
The method of Nelson et al. (Biochem. Pharmacol. 1989, 38, 1693-95) was followed with slight modifications. Rat cortex and hippocampus were used to produce a pellet having a final concentration of 20 mg of tissue/sample. Specific activity of the tracer: 81 Ci/mmole; incubation time: 30 min; incubation temperature: 25° C.

5-HT1A receptors = target: T2, 5-HT1A receptors (Rattus norvegicus, UniProt P19327); experiment: Affinity for the 5-HT1A receptors, [3H]-8-OH DPAT binding; settings: rat hippocampus; 10 min, 37° C.; IN (10^−6M) where no Ki is given; read-out: Ki ± SE, 5-HT1A Subtype ([3H]-8OH-DPAT)
T2 construct: from tissue; host or cells: rat hippocampus
Protocol: d) Affinity for the 5-HT1A Receptors
The method of Hall et al (J. Neurochem. 1985, 44, 1685-1696) was followed with slight modifications. Rat hippocampus was used to produce a pellet having a final concentration of 4 mg of tissue/sample. Specific activity of the tracer: 137 Ci/mmole; incubation time 10 min; incubation temperature: 37° C.

## NCCc1c[nH]c2ccc(O)cc12 [serotonin, reference compound]
5-HT3 receptors
  Ki: 0.118 ± 0.034 µM
5-HT1A receptors
  Ki: 0.0073 µM
